For 26 compounds, IC50 results are on record in US20040082635A1, “Fused cyclic compounds and medicinal use thereof” (priority 2001, published 2004).

By UniProt entry, the sequences of proteins in these tests, tags left out. Residues count along the entry.
UniProt P26663, 2420-3010: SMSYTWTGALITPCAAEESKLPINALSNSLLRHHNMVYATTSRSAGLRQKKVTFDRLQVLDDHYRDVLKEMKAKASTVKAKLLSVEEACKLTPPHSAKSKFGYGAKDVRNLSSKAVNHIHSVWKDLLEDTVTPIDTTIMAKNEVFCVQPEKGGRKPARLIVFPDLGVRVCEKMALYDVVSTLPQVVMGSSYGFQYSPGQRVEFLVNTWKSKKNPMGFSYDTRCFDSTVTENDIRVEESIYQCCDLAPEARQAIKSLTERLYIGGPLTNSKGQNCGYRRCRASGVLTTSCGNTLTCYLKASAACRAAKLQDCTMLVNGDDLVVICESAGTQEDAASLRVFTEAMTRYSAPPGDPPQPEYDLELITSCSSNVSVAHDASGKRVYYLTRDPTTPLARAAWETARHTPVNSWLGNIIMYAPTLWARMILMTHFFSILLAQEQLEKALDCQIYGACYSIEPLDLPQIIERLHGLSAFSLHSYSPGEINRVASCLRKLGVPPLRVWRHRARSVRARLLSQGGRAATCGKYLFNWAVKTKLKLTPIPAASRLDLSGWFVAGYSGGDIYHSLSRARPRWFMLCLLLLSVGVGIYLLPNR

Structures can show the parent of a compound that is named as a salt.

As usually defined, the IC50 is the concentration needed to halve the response being measured.

The first experiment has as its target T1, HCV polymerase (Hepatitis C virus genotype 1b, UniProt P26663).
T1 construct: a region encoding NS5B (591 amino acids; J Virol 1991 Mar, 65(3), 1105-13) was amplified by PCR; 6 His (N); made in house; host or cells: Escherichia coli
Put plainly: biochemical. The following applies: HCV polymerase inhibitory activity IC50.
The compound `NC(=O)c1ccc(-c2ccc(Cl)cc2)c(COc2ccc(-c3nc4cc(C(=O)O)ccc4n3C3CCCCC3)cc2)c1` [Example 262, 2-{4-[3-carbamoyl-6-(4-chlorophenyl)benzyloxy]phenyl}-1-cyclohexylbenzimidazole-5-carboxylic acid hydrochloride] yielded a 50% inhibitory concentration (IC50) of 13 nM. `CNC(=O)c1ccc(-c2ccc(Cl)cc2)c(COc2ccc(-c3nc4cc(C(=O)O)ccc4n3C3CCCCC3)c(F)c2)c1` [Example 268, 2-{4-[2-(4-chlorophenyl)-5-methylcarbamoylbenzyloxy]-2-fluorophenyl}-1-cyclohexylbenzimidazole-5-carboxylic acid hydrochloride]: the concentration for half-maximal inhibition (IC50) amounted to 12 nM.

Still in this experiment, the particulars now being: read-out: HCV polymerase inhibitory activity IC50.
On to `O=C(O)c1ccc2c(c1)nc(-c1ccc(OCc3cc(Cl)ccc3-c3ccc(Cl)cc3)cc1)n2C1CCCCC1` [Example 6], for which the IC50 came out at 34 nM. On to `Cc1ccc(COc2ccc(-c3nc4cc(C(=O)O)ccc4n3C3CCCC3)cc2)cc1` [Example 50, 1-cyclopentyl-2-[4-(4-methylbenzyloxy)phenyl]benzimidazole-5-carboxylic acid], for which the IC50 was 540 nM. On to `O=C(O)c1ccc2c(c1)nc(-c1ccc(OCc3cc(Cl)cc(Cl)c3)cc1)n2C1CCCC1` [Example 67, 1-cyclopentyl-2-[4-(3,5-dichlorobenzyloxy)phenyl]benzimidazole-5-carboxylic acid], for which the half-inhibitory concentration (IC50) amounted to 260 nM. Still for that read-out and setting: with `O=C(O)c1ccc2c(c1)nc(-c1ccc(OCc3ccccc3)cc1)n2C1CCCCC1` [Example 89, 2-(4-benzyloxyphenyl)-1-cyclohexylbenzimidazole-5-carboxylic acid] the figure was 340 nM; with `O=C(O)c1ccc2c(c1)nc(-c1ccc(OCCC(c3ccccc3)c3ccccc3)cc1)n2C1CCCCC1` [Example 93, 1-cyclohexyl-2-[4-(3,3-diphenylpropyloxy)phenyl]benzimidazole-5-carboxylic acid], 160 nM; with `O=C(O)c1ccc2c(c1)nc(-c1ccc(OCc3cc(Cl)ccc3-c3ccccc3)cc1)n2C1CCCCC1` [Example 94, 2-[4-(3-chloro-6-phenylbenzyloxy)phenyl]-1-cyclohexylbenzimidazole-5-carboxylic acid], 84 nM. With `O=C(O)c1ccc2c(c1)nc(-c1ccc(OCCCc3ccccc3)cc1)n2C1CCCCC1` [Example 97, 1-cyclohexyl-2-[4-(3-phenylpropyloxy)phenyl]benzimidazole-5-carboxylic acid], the IC50 was 160 nM. As for `COc1ccccc1CCOc1ccc(-c2nc3cc(C(=O)O)ccc3n2C2CCCCC2)cc1` [Example 120, 1-cyclohexyl-2-{4-[2-(2-methoxyphenyl)ethoxy]phenyl}-benzimidazole-5-carboxylic acid], the 50% inhibitory concentration (IC50) is 160 nM. Turning to `O=C(N[C@@H](COc1ccc(-c2nc3cc(C(=O)O)ccc3n2C2CCCCC2)cc1)c1ccccc1)OCc1ccccc1` [Example 130, 2-{4-[(2R)-2-benzyloxycarbonylamino-2-phenylethoxy]phenyl}-1-cyclohexylbenzimidazole-5-carboxylic acid], the IC50 turned out to be 160 nM. The same measure, in the same setting: to `Cc1ccc(-c2ccc(Cl)cc2COc2ccc(-c3nc4cc(C(=O)O)ccc4n3C3CCCCC3)cc2)cc1` [Example 142, 2-{4-[3-chloro-6-(4-methylphenyl)benzyloxy]phenyl}-1-cyclohexylbenzimidazole-5-carboxylic acid] belongs 55 nM; to `COc1ccc(-c2ccc(Cl)cc2COc2ccc(-c3nc4cc(C(=O)O)ccc4n3C3CCCCC3)cc2)cc1` [Example 143, 2-{4-[3-chloro-6-(4-methoxyphenyl)benzyloxy]phenyl}-1-cyclohexylbenzimidazole-5-carboxylic acid], 53 nM; to `COc1cc(-c2ccc(Cl)cc2COc2ccc(-c3nc4cc(C(=O)O)ccc4n3C3CCCCC3)cc2)cc(OC)c1OC` [Example 157, 2-{4-[3-chloro-6-(3,4,5-trimethoxyphenyl)benzyloxy]phenyl}-1-cyclohexylbenzimidazole-5-carboxylic acid], 160 nM. Same read-out and setting: with `O=C(O)c1ccc2c(c1)nc(-c1ccc(OCCc3ccccc3-c3ccccc3)cc1)n2C1CCCCC1` [Example 158, 2-{4-[2-(2-biphenylyl)ethoxy]phenyl}-1-cyclohexylbenzimidazole-5-carboxylic acid] the figure was 110 nM; with `C=C(C)CCOc1cccc(Oc2ccc(-c3nc4cc(C(=O)O)ccc4n3C3CCCCC3)cc2)c1` [Example 164, 1-cyclohexyl-2-{4-[3-(3-methyl-3-butenyloxy)phenoxy]phenyl}-benzimidazole-5-carboxylic acid], 160 nM. Still for that read-out and setting: with `CC(=O)Nc1ccc(-c2ccc(Cl)cc2)c(COc2ccc(-c3nc4cc(C(=O)O)ccc4n3C3CCCCC3)cc2)c1` [Example 183, 2-{4-[3-acetylamino-6-(4-chlorophenyl)benzyloxy]phenyl}-1-cyclohexylbenzimidazole-5-carboxylic acid] the figure was 17 nM; with `NC(=O)c1ccc(-c2ccc(Cl)cc2)c(COc2ccc(-c3nc4cc(C(=O)O)ccc4n3C3CCCCC3)cc2)c1` [Example 190, 2-{4-[3-carbamoyl-6-(4-chlorophenyl)benzyloxy]phenyl}-1-cyclohexylbenzimidazole-5-carboxylic acid], 20 nM. Regarding `O=C(O)c1ccc2c(c1)nc(-c1ccc(OC(c3cccc(F)c3)c3cccc(F)c3)cc1)n2C1CCCCC1` [Example 207, 2-{4-[bis(3-fluorophenyl)methoxy]phenyl}-1-cyclohexylbenzimidazole-5-carboxylic acid], the IC50 came to 81 nM. Same read-out and setting: to `Cc1ncc(COc2ccc(-c3nc4cc(C(=O)O)ccc4n3C3CCCCC3)cc2)c(-c2ccc(Cl)cc2)n1` [Example 233, 2-{4-[{4-(4-chlorophenyl)-2-methyl-5-pyrimidinyl}methoxy]phenyl}-1-cyclohexylbenzimidazole-5-carboxylic acid hydrochloride] belongs 28 nM; to `NS(=O)(=O)c1ccc(-c2ccc(Cl)cc2)c(COc2ccc(-c3nc4cc(C(=O)O)ccc4n3C3CCCCC3)cc2)c1` [Example 250, 2-{4-[2-(4-chlorophenyl)-5-sulfamoylbenzyloxy]phenyl}-1-cyclohexylbenzimidazole-5-carboxylic acid trifluoroacetate], 18 nM; to `CC(C)NC(=O)c1ccc(-c2ccc(Cl)cc2)c(COc2ccc(-c3nc4cc(C(=O)O)ccc4n3C3CCCCC3)c(F)c2)c1` [Example 285, 2-{4-[2-(4-chlorophenyl)-5-isopropylcarbamoylbenzyloxy]-2-fluorophenyl}-1-cyclohexylbenzimidazole-5-carboxylic acid], 12 nM. On the same count and under the same terms, to `COc1ccc(-c2ccc(Cl)cc2)c(CSc2ccc(-c3nc4cc(C(=O)O)ccc4n3C3CCCCC3)cc2)c1` [Example 311, 2-{4-[2-(4-chlorophenyl)-5-methoxybenzylthio]phenyl}-1-cyclohexylbenzimidazole-5-carboxylic acid hydrochloride] belongs 160 nM; to `O=C(O)c1ccc2c(c1)nc(-c1ccc(OC(c3ccccc3)c3cccnc3)cc1F)n2C1CCCCC1` (centres unmarked) [Example 313, 2-[4-(phenyl-3-pyridylmethoxy)-2-fluorophenyl]-1-cyclohexylbenzimidazole-5-carboxylic acid], 25 nM. On the same count and under the same terms, to `N#Cc1ccc(-c2ccc(Cl)cc2COc2ccc(-c3nc4cc(C(=O)O)ccc4n3C3CCCCC3)cc2)cc1` [Example 368, 2-{4-[5-chloro-2-(4-cyanophenyl)benzyloxy]phenyl}-1-cyclohexylbenzimidazole-5-carboxylic acid hydrochloride] belongs 24 nM; to `CCN(C(C)=O)c1ccc(-c2ccc(Cl)cc2)c(COc2ccc(-c3nc4cc(C(=O)O)ccc4n3C3CCCCC3)c(F)c2)c1` [Example 459, 2-[4-{2-(4-chlorophenyl)-5-(N-acetyl-N-ethylamino)benzyloxy}-2-fluorophenyl]-1-cyclohexylbenzimidazole-5-carboxylic acid hydrochloride], 14 nM.
